Assay [1] deals with T1, Mu-type opioid receptor (Cavia porcellus, UniProt P97266). Nature of the assay: Agonist activity was assessed in an guinea pig ileum (GPI) smooth muscle bioassay. It counts as functional, tissue-based.
The target of assay [2] is T1, Mu-type opioid receptor. In words: Binding affinity against mu opioid receptor using [3H]DAMGO in guinea pig ileum. It counts as tissue-based.

The chains behind the UniProt entries cited, without tags or fusion partners.
UniProt P97266, whole entry: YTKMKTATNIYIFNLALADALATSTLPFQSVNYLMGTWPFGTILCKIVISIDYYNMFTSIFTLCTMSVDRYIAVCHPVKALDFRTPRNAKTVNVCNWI

The term IC50 denotes the concentration needed to halve the response being measured. Low readings indicate greater potency, high ones weaker potency. By Ki is commonly meant the equilibrium dissociation constant of an inhibitor or competing ligand from its target. A low value points to a stronger hold on the target. Consider `CC1(C)SSC[C@H](NC(=O)[C@@H](N)Cc2ccc(O)cc2)C(=O)N[C@H](Cc2ccccc2)C(=O)N[C@@H]1C(=O)O` (stereo in doubt; 4), for which, in assay [1], the IC50 was > 30 µM. The Ki in assay [2] was > 10 µM.

`CC1(C)SSC[C@H](NC(=O)[C@@H](N)Cc2ccc(O)cc2)C(=O)N[C@H](Cc2ccccc2)C(=O)N[C@@H]1C(=O)O` (stereo in doubt; 3) came in with a half-inhibitory concentration (IC50) in assay [1] of 3.73 µM. Also, affinity in assay [2] was put at a Ki of 1 µM.

Consider `CC1(C)SSC[C@H](NC(=O)[C@@H](N)Cc2ccc(O)cc2)C(=O)N[C@H](Cc2ccccc2)C(=O)N[C@@H]1C(=O)O` (stereo in doubt; 5), for which the 50% inhibitory concentration (IC50) in assay [1] was 0.755 µM. The Ki in assay [2] came out at 0.259 µM. With `CC1(C)SSC[C@H](NC(=O)[C@@H](N)Cc2ccc(O)cc2)C(=O)N[C@H](Cc2ccccc2)C(=O)N[C@@H]1C(=O)O` (stereo in doubt; 6), the inhibition constant Ki in assay [2] was determined as 2.53 µM.

Source of the values: ChEMBL document CHEMBL1127295, “Development of a model for the delta opioid receptor pharmacophore. 2. Conformationally restricted Phe3 replacements in the cyclic delta receptor selective tetrapeptide Tyr-c[D-Cys-Phe-D-Pen]OH (JOM-13)” (J Med Chem, 1994).
